Drawing on publication doi:10.1101/2020.10.23.350348, this text covers Kd, koff and kon for one substance.

Amino acid sequences for entries named in this document (tags omitted).
UniProt P02786, whole entry: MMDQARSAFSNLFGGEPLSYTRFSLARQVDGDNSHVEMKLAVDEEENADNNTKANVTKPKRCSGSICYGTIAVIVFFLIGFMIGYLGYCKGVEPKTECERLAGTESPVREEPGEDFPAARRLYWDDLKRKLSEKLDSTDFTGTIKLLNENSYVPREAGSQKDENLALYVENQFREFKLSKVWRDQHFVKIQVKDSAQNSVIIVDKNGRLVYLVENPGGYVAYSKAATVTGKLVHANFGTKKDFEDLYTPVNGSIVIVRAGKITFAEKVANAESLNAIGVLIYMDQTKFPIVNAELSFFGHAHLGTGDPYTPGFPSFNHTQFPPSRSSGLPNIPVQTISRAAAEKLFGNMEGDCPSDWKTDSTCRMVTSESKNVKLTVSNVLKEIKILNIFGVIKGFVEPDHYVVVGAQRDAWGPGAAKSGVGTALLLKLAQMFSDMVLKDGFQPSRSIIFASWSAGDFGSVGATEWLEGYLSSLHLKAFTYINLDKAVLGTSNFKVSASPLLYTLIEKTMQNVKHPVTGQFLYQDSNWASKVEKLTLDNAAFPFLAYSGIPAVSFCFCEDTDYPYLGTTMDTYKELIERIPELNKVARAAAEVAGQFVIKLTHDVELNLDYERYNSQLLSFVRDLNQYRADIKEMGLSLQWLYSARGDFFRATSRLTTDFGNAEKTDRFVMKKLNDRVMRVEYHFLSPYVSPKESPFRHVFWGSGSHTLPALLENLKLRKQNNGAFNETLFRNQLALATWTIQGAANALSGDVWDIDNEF

The term Kd denotes the free concentration of one partner at which half of the binding sites on the other are occupied at equilibrium, for simple one-to-one binding. Read a high Kd as weaker binding. A word on the koff: it is the rate constant with which the complex falls apart. High values mean a short-lived complex, low ones a long-lived complex. One may read the kon as a measure of how fast the partners come together. A high value points to fast association.

This experiment deals with transferrin receptor (UniProt P02786). Nature of the experiment: SPR. In general terms: SPR reads the build-up and loss of mass on a sensor chip optically.

“angiotensin-converting enzyme 2 (from UniProt Q9BYF1 18-805) (receptor)” showed a Kd of 200 nM, a dissociation rate constant (koff) of 0.0125 s⁻¹ and a kon of 63300 M⁻¹ s⁻¹.
